From paper PMC7807051, “Modulation of cAMP metabolism for CFTR potentiation in human airway epithelial cells” (Scientific Reports, 2021)

By UniProt entry, the sequences of proteins in these tests, tags left out. Where a name states a change or a piece, a line headed by the entry shows the natural chain unless it says otherwise.
UniProt O15439: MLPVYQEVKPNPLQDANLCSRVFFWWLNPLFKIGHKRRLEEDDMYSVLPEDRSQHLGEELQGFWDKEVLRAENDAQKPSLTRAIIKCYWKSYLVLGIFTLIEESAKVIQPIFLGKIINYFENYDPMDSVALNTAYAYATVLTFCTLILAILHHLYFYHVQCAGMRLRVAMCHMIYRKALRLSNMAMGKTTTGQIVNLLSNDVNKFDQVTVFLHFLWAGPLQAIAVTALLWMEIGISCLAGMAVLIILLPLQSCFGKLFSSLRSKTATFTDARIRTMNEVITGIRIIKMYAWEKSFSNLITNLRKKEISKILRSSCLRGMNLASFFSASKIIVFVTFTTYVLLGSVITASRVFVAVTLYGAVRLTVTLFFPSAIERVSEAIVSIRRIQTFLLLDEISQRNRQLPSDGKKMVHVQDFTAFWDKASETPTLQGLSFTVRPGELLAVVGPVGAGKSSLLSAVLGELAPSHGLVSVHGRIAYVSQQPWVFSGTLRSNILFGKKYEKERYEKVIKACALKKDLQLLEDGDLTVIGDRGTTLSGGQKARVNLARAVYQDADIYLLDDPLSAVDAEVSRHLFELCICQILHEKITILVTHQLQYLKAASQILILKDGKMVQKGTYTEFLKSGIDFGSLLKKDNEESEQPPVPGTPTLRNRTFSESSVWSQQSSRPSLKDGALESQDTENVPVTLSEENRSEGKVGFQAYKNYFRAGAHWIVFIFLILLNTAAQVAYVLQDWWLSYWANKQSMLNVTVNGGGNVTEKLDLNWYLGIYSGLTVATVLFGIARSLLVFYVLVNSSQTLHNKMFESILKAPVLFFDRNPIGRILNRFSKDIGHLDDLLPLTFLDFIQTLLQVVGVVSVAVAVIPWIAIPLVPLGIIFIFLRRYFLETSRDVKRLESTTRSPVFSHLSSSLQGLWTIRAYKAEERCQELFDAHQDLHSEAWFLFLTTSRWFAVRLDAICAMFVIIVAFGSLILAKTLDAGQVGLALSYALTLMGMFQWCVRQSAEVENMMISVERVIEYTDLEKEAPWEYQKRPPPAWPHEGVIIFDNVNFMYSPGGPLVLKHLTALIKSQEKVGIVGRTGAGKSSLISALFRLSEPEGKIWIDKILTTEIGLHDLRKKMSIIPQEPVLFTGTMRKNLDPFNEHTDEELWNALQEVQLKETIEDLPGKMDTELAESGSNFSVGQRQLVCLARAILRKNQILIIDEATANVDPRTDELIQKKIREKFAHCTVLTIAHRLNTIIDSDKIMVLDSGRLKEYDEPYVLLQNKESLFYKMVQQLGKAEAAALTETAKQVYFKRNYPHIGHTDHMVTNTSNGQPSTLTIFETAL

Key:
[1] = target: T1, ABCC4 (Homo sapiens, UniProt O15439); assay: In vitro extracellular cAMP assay of ABCC4 inhibitors in Calu-3 cells; format: cell-based; details: IBMX 20 μM pre-treatment, forskolin 10 μM, normalized to IBMX + forskolin, read-out: half maximal inhibitory concentration (IC50), extracellular cAMP
T1 construct: ABCC4 was present in both HBEC6-KT and Calu-3 cells at all-time points, indicated by the bands present at 150 kDa; endogenous in cells; host or cells: HBEC6-KT (immortalized human bronchial epithelial cells)
Method: Figure 1 Concentration–response analysis of compounds with ABCC4 inhibition properties on extracellular cAMP from human airway epithelial cells. Human airway epithelial (Calu-3) cells were pre-treated with IBMX (20 μM), exposed to (a) MK-571, (b) Ceefourin-1, or DMSO vehicle control, and then treated with forskolin (10 μM). Cell culture supernatants were assessed for cAMP levels 24 h post-treatment. Each concentration–response curve was normalized to positive control (IBMX + forskolin) with data presented as means ± standard deviations (n = 3, MK-571; n = 3, Ceefourin-1).
(§1) Calu-3 and HBEC6-KT cells were cultured as described previously[41],[42],[71],[72]. Cells were pretreated with IBMX (20 μM) for 2 h prior to experimental conditions. After the pre-treatment of IBMX, cells were treated with ABCC4 inhibitors (0.01–100 μM) or DMSO for 30 min. Following these exposures, the cells were treated with forskolin (10 μM) for 6 h and cell-culture supernatants were collected for analysis of extracellular cAMP. The negative control was IBMX alone and the positive control was IBMX and forskolin.
(§2) For the in vitro extracellular cAMP assay, values were normalized to the positive control (IBMX and forskolin) and the half maximal inhibitory concentration (IC50) was determined. SD was calculated using data from biological replicates (n = 4–5).

[2] = target: T1, ABCC4; assay: In vitro extracellular cAMP assay of ABCC4 inhibitors in HBEC6-KT cells; format: cell-based; details: IBMX 20 μM pre-treatment, forskolin 10 μM, normalized to IBMX + forskolin, read-out: half maximal inhibitory concentration (IC50), extracellular cAMP
Method: as §1, §2
Supplementary Figure 1: Concentration-response analysis of compounds with ABCC4 inhibition properties on extracellular cAMP from human airway epithelial cells. Human airway epithelial (HBEC6-KT) cells were pre-treated with IBMX (20 μM), exposed to (a) MK-571, (b) Ceefourin-1, or DMSO vehicle control, and then treated with forskolin (10 μM). Cell culture supernatants were assessed for cAMP levels 24h post-treatment. […] Each concentration-response curve was normalized to positive control (IBMX + forskolin) with data presented as means ± standard deviations (n=4, MK-571; n=5, Ceefourin-1).

IC50 [1]: 2600 nM
IC50 [2]: 200 nM
SMILES: CN(C)C(=O)CCSC(SCCC(=O)O)c1cccc(/C=C/c2ccc3ccc(Cl)cc3n2)c1 (centres unmarked) [MK-571]
